System: non-soluble type I collagen
Assay: Non-soluble type I collagen production by HDF, direct ELISA
Format: cell-based, human
Details: for % CTRL (COL-I): 4 days, vs water; for % CTRL (Cell # Standardized): non-soluble collagen I standardized to cell numbers
Method: Adult human dermal fibroblasts (Cell Applications, San Diego, Calif.) were plated in DMEM without phenyl red supplemented with 5% FBS and 1% penicillin/streptomycin (PS) at a concentration of 8,000 cells/well. Test materials, which were stored at 4° C. until dissolved at 20 mg/ml in ddH2O, were added the next day on attached exponentially-growing cells. Negative and positive controls were, respectively, type I sterile water and L-Ascorbic acid 2-phosphate sesquimagnesium salt (“MAP”) (Sigma-Aldrich).
Cells were then fixed with 2.5% trichloroacetic acid (TCA) at 4° C., dried overnight, and tested for non-soluble type I collagen, using direct ELISA.
Cells proliferation was quantified by staining cytoskeletons with sulforhodamine B according to the colorimetric method of Voigt, “Sulforhodamine B assay and chemosensitivity,” Methods Mol. Med. Vol. 110, pp. 39-48 (2005). Statistical significance was assessed with two-tailed paired Student test. Deviations of >15% as compared to the negative water control with p values below 0.05 were considered statistically significant.
The effect of test materials on non-soluble collagen I production, cell numbers, and non-soluble collagen I standardized to cell numbers expressed as % of the negative control (water) are presented in the following table.

Question: Which “% CTRL (COL-I)” value (50 μg/mL) does the source give for “L-Ascorbic acid 2-phosphate sesquimagnesium salt [MAP, reference compound]” here?
Answer: Its value is 132 % CTRL.

Question: What about the “% CTRL (COL-I)” value (100 μg/mL) of the same substance?
Answer: Its value is 141 % CTRL.

Question: What about the “% CTRL (Cell # Standardized)” value (50 μg/mL) of the same substance?
Answer: Its value is 117 % CTRL.

Question: What about the “% CTRL (Cell # Standardized)” value (100 μg/mL) of the same substance?
Answer: The value was 138 % CTRL.

— patent publication US20180228703A1, “Improved Hyaluronan and Modified-Hyaluronan in Biomedical Applications” (CHL Industries, LLC, priority 2015, published 2018)
